Results on one compound are retold here after patent US20110003711A1 (CHROMOCELL CORPORATION, priority 2008, published 2011).

The chains behind the UniProt entries cited, without tags or fusion partners. Residues count along the entry.
UniProt P14867, 28-456: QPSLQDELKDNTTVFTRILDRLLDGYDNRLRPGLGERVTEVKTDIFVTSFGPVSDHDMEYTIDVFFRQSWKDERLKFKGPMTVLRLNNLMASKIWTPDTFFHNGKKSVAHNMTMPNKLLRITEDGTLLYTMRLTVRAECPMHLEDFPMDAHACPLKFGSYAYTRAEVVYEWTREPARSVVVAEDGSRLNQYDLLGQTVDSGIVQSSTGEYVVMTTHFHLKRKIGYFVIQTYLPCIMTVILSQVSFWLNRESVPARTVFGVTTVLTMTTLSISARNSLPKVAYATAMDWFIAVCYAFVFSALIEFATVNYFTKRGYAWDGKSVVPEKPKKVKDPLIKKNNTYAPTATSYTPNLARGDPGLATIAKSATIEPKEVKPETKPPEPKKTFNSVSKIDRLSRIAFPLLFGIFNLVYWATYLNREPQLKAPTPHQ
UniProt P18507, 40-467 isoform P18507-1 limits assumed: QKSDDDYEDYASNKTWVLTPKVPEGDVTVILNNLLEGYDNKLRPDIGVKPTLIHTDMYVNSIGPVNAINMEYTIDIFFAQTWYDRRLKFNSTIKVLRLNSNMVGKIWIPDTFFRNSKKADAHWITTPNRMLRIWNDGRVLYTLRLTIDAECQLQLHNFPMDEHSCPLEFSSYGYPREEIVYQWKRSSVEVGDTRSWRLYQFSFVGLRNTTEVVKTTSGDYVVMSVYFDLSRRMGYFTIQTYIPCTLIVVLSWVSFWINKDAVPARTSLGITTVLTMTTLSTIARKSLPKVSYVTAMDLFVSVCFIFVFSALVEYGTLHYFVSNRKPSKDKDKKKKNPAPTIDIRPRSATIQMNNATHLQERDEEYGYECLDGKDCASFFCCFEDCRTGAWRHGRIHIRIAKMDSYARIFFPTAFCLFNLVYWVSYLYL
UniProt P28472, 26-473: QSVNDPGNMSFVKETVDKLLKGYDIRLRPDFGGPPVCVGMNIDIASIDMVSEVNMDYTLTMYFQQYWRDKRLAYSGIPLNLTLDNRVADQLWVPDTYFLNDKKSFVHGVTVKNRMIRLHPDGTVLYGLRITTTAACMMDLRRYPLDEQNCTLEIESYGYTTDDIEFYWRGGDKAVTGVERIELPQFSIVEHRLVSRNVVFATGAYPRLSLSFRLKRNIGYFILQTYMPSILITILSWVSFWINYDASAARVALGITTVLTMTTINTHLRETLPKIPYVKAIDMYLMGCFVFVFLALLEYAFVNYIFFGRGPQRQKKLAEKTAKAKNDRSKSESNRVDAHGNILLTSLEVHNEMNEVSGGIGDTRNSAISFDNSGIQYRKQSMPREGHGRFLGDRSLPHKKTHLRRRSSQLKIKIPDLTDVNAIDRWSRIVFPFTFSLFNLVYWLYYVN

For this test, the target named is T1, GABAA receptor α1β3γ2s (α1) (Homo sapiens, UniProt P14867+P18507+P28472).
T1 construct: Human GABAA receptor alpha 1 subunit amino acid; Human GABAA receptor beta 3 variant 1 subunit amino acid; Human GABAA receptor gamma 2 variant 1 (short) subunit amino acid; expressed in transfected cells
Briefly: Membrane potential assay, CHO cell line expressing GABAA α1β3γ2s. The test is classed as cell-based.

By EC50 is commonly meant the concentration giving half of the maximal effect. Low values mean an effect from little substance, high ones a need for much substance. `OCCN(CCO)c1nc(N2CCCCC2)c2nc(N(CCO)CCO)nc(N3CCCCC3)c2n1` [Dipyridamole] showed a concentration for a half-maximal effect (EC50) of 7.16 µM.
